## Binding of CDR-mutated scFvs to a peptide of the spike HR2 region

Target peptide (SARS-CoV-2 spike, HR2 region): PDVDLGDISGINAS

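The starting antibody came from a phage panning campaign against this peptide. AAYL52 was designed without a model: most single CDR substitutions and a random sample of double and triple ones. In AlphaSeq, yeast of one mating type display the scFv and yeast of the other type display the target. The frequency of each diploid, read from paired DNA barcodes, reflects how well the two displayed proteins bind. Scores were corrected for input abundance and mapped to Kd with protein pairs of known affinity run in the same pool. Mating was done three times.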

Parent scFv Ab-95: VH joined to VL by a 15-residue (Gly4Ser)3 linker. Changes lie in the light chain CDRs alone.
VH: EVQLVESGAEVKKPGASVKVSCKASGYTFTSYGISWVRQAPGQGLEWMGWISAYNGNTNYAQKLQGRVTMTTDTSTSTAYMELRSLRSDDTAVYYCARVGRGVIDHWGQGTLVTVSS
VL: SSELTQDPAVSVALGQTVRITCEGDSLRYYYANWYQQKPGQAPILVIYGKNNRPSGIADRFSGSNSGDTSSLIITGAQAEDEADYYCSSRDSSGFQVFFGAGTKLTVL

Variants are written as CDR1, CDR2 and CDR3 of the light chain (limits as in the source). Parent: EGDSLRYYYAN, GKNNRPS, SSRDSSGFQVF.
The read-out is the apparent dissociation constant on a log10 scale (nM): the lower, the stronger.
"ND" marks a missing value. The strain was present, yet no cells mated with the target were sequenced in that replicate, which points to weak or no binding.
Nonspecific signal, from three strains lacking the peptide, appeared in 28% of pairings of library AAYL52, centred on 3.91 (5% of these signals below 2.90); values are not corrected for it. Also given: how often the same scFv was detected with the empty control strains.

The variant EGDSLRYYEAN | GKNNRPS | SSRRSSGFQVF showed 2.66, 2.57, 2.32 (controls 3 of 9).
The variant EGDSLRYYYAN | GKNMRDS | SSRDSSGVQVF showed 4.67, 3.31, ND (controls 0 of 9).
The variant YGDSLRYYYAN | GKNNRPN | STRDSSGFQVF showed 2.12, 1.97, 1.88 (controls 2 of 9).
The variant EGDSLRYYYAG | GPNNRPW | SSRDSSGFQVF showed 4.53, 5.05, 3.64 (controls 7 of 9).
The variant EGDSLRYYYAN | GKNYRPP | SSRDISGFQVF showed 3.67, ND, 4.22 (controls 1 of 9).
The variant IGDSLRYYYAG | GKNNGPS | SSRDSSGFQVF showed 4.02, 3.81, ND (controls 0 of 9).
The variant EGDSLRYYYAN | GKNNRPS | PSRRCSGFQVF showed ND, 5.28, ND (controls 1 of 9).
The variant EGDQLRYYYTN | GKNDRPS | SSRDSSGFQVF showed 3.95, 3.70, ND (controls 1 of 9).
The variant GGDSARYYYAN | GKNNRPS | SSRDSSCFQVF showed ND, ND, ND (controls 1 of 9).
The variant PGDSLRYYYAN | GHNNRPS | SSRDSSGFQDF showed 3.46, ND, ND (controls 2 of 9).
The variant EGDSLRYYYAN | GPFNRPS | SSRDSSGKQVF showed 3.23, 3.67, 3.76 (controls 3 of 9).
The variant EGECLRYYYAN | GKNNRQS | SSRDSSGFQVF showed ND, 3.51, ND (controls 4 of 9).
The variant EGDSLRYYYAN | GRNNRPS | SSRCSSGFQVW showed 2.91, 3.01, 2.44 (controls 7 of 9).
The variant EGDSLRMYVAN | GPNNRPS | SSRDSSGFQVF showed 3.23, ND, 4.56 (controls 5 of 9).
The variant EGDSLRHYYAN | GQNNRPL | SSRDSSGFQVF showed 1.63, 1.62, 1.45 (controls 2 of 9).
The variant EGMSLRYYYAN | GCNNRPS | SSRDSSGPQVF showed ND, ND, 2.71 (controls 1 of 9).
The variant EGDSLRQYYAN | GKNNRPS | SSTLSSGFQVF showed 2.03, 2.05, 1.90 (controls 5 of 9).
The variant EGDSLRYYYAN | GKNVRYS | SSRDSSGFQVF showed 3.12, 3.87, 4.25 (controls 3 of 9).
The variant EGDSLRYYYAN | GKNNRPS | SSRDSSGFQWF showed 1.94, 1.68, 1.57 (controls 2 of 9).
The variant ENDMLRYYHAN | GKNNRPS | SSRDSSGFQVF showed 3.97, 3.54, ND (controls 0 of 9).
The variant EGDSLDYYYAN | GKNNRYS | SSRDSSGPQVF showed ND, ND, ND (controls 1 of 9).
The variant EGDFLRFYYAN | GKNNRPS | SSIDSSGFQVF showed 3.51, 3.28, 4.37 (controls 4 of 9).
The variant EGDSLRYYEAN | GKNNRPS | SSSDSSGFQVF showed 3.58, 3.76, ND (controls 3 of 9).
The variant EGDELRYYYAN | GKNNRPS | SRRDSSGFLVF showed 3.25, ND, ND (controls 4 of 9).
The variant EGDDLRYYYAN | GKNQRPS | SSRDSSRFQVF showed 2.12, 2.22, 1.78 (controls 3 of 9).
The variant EGDGLRFYYAN | GKNNRPS | SSRDSSGFQVP showed 2.38, 2.92, 3.38 (controls 1 of 9).
The variant EHDSLRYCYAN | GKNKRPS | SSRDSSGFQVF showed 3.72, 3.66, 4.23 (controls 2 of 9).
The variant EGDSLRYYFAN | GKNNRPS | SSRDSSGFQTF showed 3.43, 2.78, 3.00 (controls 5 of 9).
The variant EGDSNRYYYAN | GKNNRPS | SSRDSHHFQVF showed ND, ND, ND (controls 0 of 9).
The variant EGDHLRYTYAN | GKNNRWS | SSRDSSGFQVF showed 2.09, 2.25, 2.59 (controls 2 of 9).
The variant EGDSLRYYYAN | GKNKRPS | SSRDSSGSWVF showed ND, 5.25, 4.22 (controls 2 of 9).
The variant EGDSLRYYYAN | GKNWRPY | SSHDSSGFQVF showed 3.34, ND, 3.88 (controls 7 of 9).
The variant EGDSLRYYYAN | GKNNRPT | SSRDSSGCQVF showed ND, 4.44, ND (controls 1 of 9).
The variant EGDSLRYNYAN | GKNNEPS | SSTDSSGFQVF showed 5.41, ND, 4.30 (controls 1 of 9).
The variant EGDSLRYYYAN | GKNNRPS | ASRDASPFQVF showed 1.66, 2.21, 0.86 (controls 0 of 9).
The variant EGDSLVYYYAN | GKNNRPS | SSRDASEFQVF showed 2.96, 3.92, 3.76 (controls 0 of 9).
The variant EGDSLRYYYAN | GKNNRPS | YSRDSYGFQHF showed 2.84, 3.55, 2.49 (controls 2 of 9).
The variant EGDSLRYYYIN | GKNNRGS | SSRDSSGFQVF showed 2.96, 2.48, 2.72 (controls 2 of 9).
The variant EGDSLRYYRAN | GINLRPS | SSRDSSGFQVF showed 3.78, 3.30, 4.06 (controls 2 of 9).
The variant EPDSLRYYYAN | GKNNRPR | SSRDSDGFQVF showed 3.20, 4.08, ND (controls 6 of 9).
The variant EGDSLRYYYAS | GKNNPPS | SSKDSSGFQVF showed ND, ND, ND (controls 1 of 9).
The variant EGDSLRYRWAN | GKCNRPS | SSRDSSGFQVF showed 5.16, ND, ND (controls 3 of 9).

For reference, 4 entries of the list once more:

CDR-L1,CDR-L2,CDR-L3,"log10 Kd, replicates",empty controls
EGDSLRYYYAN,GKNNRPS,ASRDASPFQVF,"1.66, 2.21, 0.86",0 of 9
EGMSLRYYYAN,GCNNRPS,SSRDSSGPQVF,"ND, ND, 2.71",1 of 9
EGDSLRYYEAN,GKNNRPS,SSRRSSGFQVF,"2.66, 2.57, 2.32",3 of 9
EGDSLRYYYAN,GPFNRPS,SSRDSSGKQVF,"3.23, 3.67, 3.76",3 of 9

From the AlphaSeq antibody data of Engelhart et al. 2022 (doi:10.1038/s41597-022-01779-4), copy in the FLAb collection.